The source of these data is patent US20090053807A1 (Novo Nordisk A/S, priority 1998, published 2009).

By UniProt entry, the sequences of proteins in these tests, tags left out. Residues count along the entry.
UniProt P08069, 741-935 limits assumed: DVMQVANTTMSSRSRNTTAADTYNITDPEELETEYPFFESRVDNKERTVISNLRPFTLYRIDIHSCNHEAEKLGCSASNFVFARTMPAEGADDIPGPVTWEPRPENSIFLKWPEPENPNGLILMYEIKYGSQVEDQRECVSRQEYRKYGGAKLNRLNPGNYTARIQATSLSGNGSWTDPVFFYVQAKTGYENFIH
UniProt P08069, 31-736 limits assumed: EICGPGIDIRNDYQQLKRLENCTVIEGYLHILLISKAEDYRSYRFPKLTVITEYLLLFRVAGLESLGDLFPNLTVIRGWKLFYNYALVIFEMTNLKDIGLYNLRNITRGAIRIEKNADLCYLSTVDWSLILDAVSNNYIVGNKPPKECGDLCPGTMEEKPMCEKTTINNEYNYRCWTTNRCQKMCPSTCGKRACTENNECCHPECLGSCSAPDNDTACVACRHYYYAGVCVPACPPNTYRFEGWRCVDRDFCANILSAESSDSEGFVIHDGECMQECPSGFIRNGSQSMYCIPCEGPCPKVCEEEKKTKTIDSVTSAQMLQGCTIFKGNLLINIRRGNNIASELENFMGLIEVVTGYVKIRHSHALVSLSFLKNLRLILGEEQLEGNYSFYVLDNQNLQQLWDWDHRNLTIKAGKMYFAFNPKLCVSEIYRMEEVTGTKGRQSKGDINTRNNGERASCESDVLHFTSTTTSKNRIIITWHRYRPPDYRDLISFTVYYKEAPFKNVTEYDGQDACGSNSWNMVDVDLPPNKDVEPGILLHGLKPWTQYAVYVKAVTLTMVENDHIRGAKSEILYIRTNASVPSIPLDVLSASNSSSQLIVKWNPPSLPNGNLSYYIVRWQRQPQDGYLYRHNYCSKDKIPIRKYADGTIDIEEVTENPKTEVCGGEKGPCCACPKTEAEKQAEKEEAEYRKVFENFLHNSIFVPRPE
UniProt P06213, 28-758 limits assumed: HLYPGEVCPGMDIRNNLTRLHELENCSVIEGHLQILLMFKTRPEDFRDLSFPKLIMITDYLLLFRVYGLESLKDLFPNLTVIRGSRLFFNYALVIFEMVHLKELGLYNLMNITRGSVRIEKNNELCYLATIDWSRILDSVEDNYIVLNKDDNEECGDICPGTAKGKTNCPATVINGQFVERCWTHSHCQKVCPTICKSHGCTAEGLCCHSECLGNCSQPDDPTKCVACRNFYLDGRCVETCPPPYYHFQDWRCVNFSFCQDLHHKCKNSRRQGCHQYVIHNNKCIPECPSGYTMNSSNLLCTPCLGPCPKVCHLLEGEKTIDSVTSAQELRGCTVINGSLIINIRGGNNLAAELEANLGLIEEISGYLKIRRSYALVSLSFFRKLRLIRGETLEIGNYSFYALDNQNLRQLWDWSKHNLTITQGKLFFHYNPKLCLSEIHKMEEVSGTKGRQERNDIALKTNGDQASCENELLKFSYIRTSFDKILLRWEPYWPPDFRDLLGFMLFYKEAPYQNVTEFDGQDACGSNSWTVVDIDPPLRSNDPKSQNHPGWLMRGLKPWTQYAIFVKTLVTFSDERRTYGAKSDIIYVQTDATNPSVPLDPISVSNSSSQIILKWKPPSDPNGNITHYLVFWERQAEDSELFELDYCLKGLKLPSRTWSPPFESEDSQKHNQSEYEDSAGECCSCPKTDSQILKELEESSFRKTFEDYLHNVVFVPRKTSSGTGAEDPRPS
UniProt P06213, 763-1382 limits assumed: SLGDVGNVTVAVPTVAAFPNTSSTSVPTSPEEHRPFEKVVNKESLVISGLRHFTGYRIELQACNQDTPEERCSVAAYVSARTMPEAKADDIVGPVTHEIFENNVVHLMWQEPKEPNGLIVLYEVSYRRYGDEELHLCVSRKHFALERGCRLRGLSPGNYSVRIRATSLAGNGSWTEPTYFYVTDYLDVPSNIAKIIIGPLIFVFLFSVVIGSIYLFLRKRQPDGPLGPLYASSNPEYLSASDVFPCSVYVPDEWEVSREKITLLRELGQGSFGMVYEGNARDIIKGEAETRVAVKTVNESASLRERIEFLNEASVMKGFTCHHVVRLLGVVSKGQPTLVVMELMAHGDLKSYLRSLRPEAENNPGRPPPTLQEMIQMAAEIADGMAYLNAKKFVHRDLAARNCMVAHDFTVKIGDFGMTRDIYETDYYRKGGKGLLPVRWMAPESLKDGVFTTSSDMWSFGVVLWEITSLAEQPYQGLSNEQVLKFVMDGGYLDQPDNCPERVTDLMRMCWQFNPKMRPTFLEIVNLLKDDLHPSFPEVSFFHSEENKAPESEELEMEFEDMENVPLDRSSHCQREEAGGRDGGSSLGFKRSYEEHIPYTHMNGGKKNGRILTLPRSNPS

Assay [1] deals with His-tagged soluble recombinant human IGF-1R (srhIGF-1R-his) (Homo sapiens, UniProt P08069). Kind of assay: ALPHAScreen binding assay, competition with b-hIGF-1. As to conditions: Table 29.
Assay [2] deals with T1, human insulin receptor (HIR) (Homo sapiens, UniProt P06213).
T1 construct: made in house
Kind of assay: Insulin receptor binding, competition with 125I-labeled insulin (radio-receptor assay). The following applies: HIR binding affinity of synthetic peptides.

As for GRVDWLQRNANFYDWFVAELG [Peptide S175], the 50% inhibitory concentration (IC50) in assay [1] was determined as 7.1 µM.

In assay [2], (ESFYDWFERQLGK)2-23 [Peptide S415] returned a Kd of 100 nM.
